Data from patent US9315491B2 (DEVELOPMENT CENTER FOR BIOTECHNOLOGY, priority 2009, dated 2016).

By UniProt entry, the sequences of proteins in these tests, tags left out.
UniProt P42336, whole entry, species assumed: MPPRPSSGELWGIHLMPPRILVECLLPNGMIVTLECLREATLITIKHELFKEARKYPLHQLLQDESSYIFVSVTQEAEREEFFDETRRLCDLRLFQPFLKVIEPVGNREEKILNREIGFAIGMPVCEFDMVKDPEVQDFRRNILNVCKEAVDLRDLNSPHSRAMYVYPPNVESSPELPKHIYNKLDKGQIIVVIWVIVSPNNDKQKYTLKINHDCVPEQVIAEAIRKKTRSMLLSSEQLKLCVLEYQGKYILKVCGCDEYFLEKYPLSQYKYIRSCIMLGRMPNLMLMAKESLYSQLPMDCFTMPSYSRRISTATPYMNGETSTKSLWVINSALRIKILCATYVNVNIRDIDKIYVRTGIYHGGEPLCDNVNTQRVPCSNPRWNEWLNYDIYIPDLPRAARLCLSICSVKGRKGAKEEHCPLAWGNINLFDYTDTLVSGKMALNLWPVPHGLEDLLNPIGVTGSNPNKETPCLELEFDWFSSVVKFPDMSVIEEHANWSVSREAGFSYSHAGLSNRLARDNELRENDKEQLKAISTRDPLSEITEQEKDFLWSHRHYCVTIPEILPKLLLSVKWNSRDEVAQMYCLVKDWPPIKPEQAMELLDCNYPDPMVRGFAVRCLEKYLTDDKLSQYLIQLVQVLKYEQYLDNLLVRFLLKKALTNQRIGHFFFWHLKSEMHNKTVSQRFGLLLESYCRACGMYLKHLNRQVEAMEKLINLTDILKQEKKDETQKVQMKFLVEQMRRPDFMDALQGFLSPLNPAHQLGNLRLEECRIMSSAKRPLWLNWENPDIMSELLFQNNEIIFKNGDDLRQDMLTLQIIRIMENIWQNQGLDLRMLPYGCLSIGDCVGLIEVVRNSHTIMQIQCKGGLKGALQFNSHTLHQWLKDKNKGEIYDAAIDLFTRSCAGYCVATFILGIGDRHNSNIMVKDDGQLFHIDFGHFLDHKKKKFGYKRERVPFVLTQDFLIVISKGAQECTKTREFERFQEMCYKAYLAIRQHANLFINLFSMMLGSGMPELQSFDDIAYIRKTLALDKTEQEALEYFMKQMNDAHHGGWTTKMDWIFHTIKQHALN

How the values were obtained:
[1] = test system: PC-3 cells; assay: Antiproliferation assay (MTS), PC-3; assay type: cell-based; conditions: Homo sapiens, PC3, 72 hours of drug treatment
[2] = test system: A549 cells; assay: Antiproliferation assay (MTS), A549; assay type: cell-based; conditions: Homo sapiens; A549, 72 hours of drug treatment
[3] = target: PI3K (p110α/p85α) (Homo sapiens (Human), UniProt P42336); assay: PI3K HTRF enzyme assay, p110α/p85α; assay type: biochemical; conditions: read-out: % inhibition @ 500 nM p110α; compound at 500 nM, 10 μM ATP
Description: Recombinant PI3K (p110α/p85α) and PI3K (p110β/p85α) were from Millipore. […] Briefly, the compounds of interest dissolved in 100% DMSO were dispensed in all wells, following which the mixture of PIP2 and enzyme was added. PI3K (p110α/p85α) and PI3K (p110β/p85α) enzyme reactions were initiated in the presence of 10 μM and 100 μM ATP, respectively, and incubated for 30 min at room temperature. STOP solution prepared 2 hours prior to use was added to stop reactions, and mixed well. Detection solution prepared 2 hours prior to use was added, and incubated at room temperature for 17 hours in the dark. […] HTRF ration was calculated as follows: […]

SMILES: CSc1cnc(-c2ccc(NC(=O)Nc3ccc(N4CCN(C)CC4)cc3)cc2)nc1N1CCOCC1 [MTR-0246, 1-[4-(4-Methyl-piperazin-1-yl)-phenyl]-3-[4-(5-methylsulfanyl-4-morpholin-4-yl-pyrimidin-2-yl)-phenyl]-urea]
- IC50 [1]: 0.433 ± 0.01 µM
- IC50 [2]: 1.45 ± 0.029 µM
- inhibition at 0.5 µM [3]: 43.3%

SMILES: COc1cnc(-c2ccc(NC(=O)Nc3ccc(N4CCOCC4)nc3)cc2)nc1N1CCOCC1 [MTR-0353, 1-[4-(5-Methoxy-4-morpholin-4-yl-pyrimidin-2-yl)-phenyl]-3-(6-morpholin-4-yl-pyridin-3-yl)-urea]
- IC50 [1]: 0.396 ± 0.006 µM
- IC50 [2]: 0.557 ± 0.007 µM
